Most compounds without a hit are left out; they make up all but 1.5% or so of the library.
Yeast UUG start – yeast start codon fidelity modulation | S. cerevisiae UUG-firefly luciferase reporter, luminescence/redox ratio | activity score, % at 18.7 µM | 0.13% of 350,000 active | AID 602363;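 active means replicate mean at a twofold rise or more, about +100% in these data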;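 further: firefly luciferase made from a UUG start codon reports start codon fidelity; reporter light over untreated wells divided by growth signal over untreated wells; some hits fall short of that in this replicate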
MLLE-PAM2 inh – inhibitors of PABP1 MLLE–PAM2 peptide binding, primary screen, biochemical, fluorescence polarization, FITC-PAM2, GST-MLLE; inhibition, % at 20 µM; actives 0.36% (n = 360,000); AID 588489, 2011; in the data active means inhibition above about 35%, passing the limit was not always enough
eIF4H inh – human eIF4H binding inhibitors, primary screen, translation initiation inhibitor project, biochemical, uHTS, fluorescence polarization; Eukaryotic translation initiation factor 4H (Homo sapiens), Q15056; eIF4H fluorescence polarization binding assay; inhibition, % at 35 µM; actives 0.94% (n = 290,000);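 further: calls also rest on retests at 20 µM and on dose response follow-up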
DSG3 Ab inh – inhibitors of pemphigus antibody binding to DSG3, primary screen, biochemical, bead-based, flow cytometry, scFv-GFP; Desmoglein-3 (Homo sapiens), P32926; DSG3-coupled beads, scFv-anti-DSG3-GFP binding; hits give low values; binding (percent of control), % at 10 µM; actives 0.48% (n = 310,000); AID 588358, 2011;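 active means binding more than 3 SD below its plate's average and above zero; inconclusive means below that plate limit but binding exactly zero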;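 further: hits lower antibody fragment binding to DSG3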
PABP FP inh – PABP poly(A) RNA binding inhibitors, primary screen, biochemical, fluorescence polarization, uHTS; actives 1% (n = 290,000); calls only at 35 µM; AID 2014, 2009; Polyadenylate-binding protein 1 (Homo sapiens), P11940;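 further: calls also rest on retests at 20 µM and on dose response follow-up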
Numbers stand for hits; n = inactive; u = inconclusive; x = no result given; + = active, no number. Unless noted, how the calls were made is not given here.

The chains behind the UniProt entries cited, without tags or fusion partners.
Desmoglein-3 (Homo sapiens), P32926, UniProt P32926, whole entry, looked up: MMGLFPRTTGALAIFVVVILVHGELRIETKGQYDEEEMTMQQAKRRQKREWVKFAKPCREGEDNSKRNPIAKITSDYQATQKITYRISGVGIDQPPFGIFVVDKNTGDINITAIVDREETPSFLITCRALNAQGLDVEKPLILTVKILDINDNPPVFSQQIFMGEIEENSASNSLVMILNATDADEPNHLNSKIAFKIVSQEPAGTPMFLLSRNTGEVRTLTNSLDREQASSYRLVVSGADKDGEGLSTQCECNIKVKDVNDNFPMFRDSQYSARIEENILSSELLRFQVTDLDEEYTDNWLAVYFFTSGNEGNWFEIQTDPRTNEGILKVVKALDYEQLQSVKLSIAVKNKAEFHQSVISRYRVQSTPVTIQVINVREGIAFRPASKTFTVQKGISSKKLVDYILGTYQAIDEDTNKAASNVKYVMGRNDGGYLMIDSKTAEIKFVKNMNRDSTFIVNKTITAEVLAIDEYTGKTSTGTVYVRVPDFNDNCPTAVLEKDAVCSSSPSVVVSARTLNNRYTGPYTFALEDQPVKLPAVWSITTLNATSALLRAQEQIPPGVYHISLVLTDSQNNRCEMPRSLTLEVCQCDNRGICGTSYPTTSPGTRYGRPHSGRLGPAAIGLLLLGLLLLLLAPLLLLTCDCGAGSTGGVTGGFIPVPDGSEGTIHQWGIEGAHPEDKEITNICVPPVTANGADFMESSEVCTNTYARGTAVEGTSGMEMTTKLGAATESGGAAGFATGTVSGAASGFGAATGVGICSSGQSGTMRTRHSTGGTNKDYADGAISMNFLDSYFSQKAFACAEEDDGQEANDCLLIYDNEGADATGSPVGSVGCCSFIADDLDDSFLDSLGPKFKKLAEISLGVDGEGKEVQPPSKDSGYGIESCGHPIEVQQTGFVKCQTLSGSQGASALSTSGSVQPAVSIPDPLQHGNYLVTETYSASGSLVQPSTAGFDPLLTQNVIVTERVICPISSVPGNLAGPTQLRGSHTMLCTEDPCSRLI
Polyadenylate-binding protein 1 (Homo sapiens), P11940, UniProt P11940, whole entry, looked up: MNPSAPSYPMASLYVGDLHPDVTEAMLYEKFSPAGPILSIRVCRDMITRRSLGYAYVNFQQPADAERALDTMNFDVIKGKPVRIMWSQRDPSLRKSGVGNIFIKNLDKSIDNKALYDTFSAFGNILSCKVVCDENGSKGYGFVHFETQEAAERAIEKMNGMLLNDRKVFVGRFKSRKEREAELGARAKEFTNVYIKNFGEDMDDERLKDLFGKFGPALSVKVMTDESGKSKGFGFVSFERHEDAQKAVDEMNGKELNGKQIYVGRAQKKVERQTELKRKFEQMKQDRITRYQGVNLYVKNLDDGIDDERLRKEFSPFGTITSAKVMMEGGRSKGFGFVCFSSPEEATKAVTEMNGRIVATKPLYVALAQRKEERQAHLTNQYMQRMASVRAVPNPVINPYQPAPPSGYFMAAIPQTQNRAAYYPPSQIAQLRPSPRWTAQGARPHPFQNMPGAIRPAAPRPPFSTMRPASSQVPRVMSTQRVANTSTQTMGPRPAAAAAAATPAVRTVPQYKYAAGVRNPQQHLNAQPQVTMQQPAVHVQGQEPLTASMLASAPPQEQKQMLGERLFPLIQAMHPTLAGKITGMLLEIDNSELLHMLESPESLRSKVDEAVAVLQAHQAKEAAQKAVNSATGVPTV

SMILES	Yeast UUG start	MLLE-PAM2 inh	eIF4H inh	DSG3 Ab inh	PABP FP inh
O=C(C[C@H]1CC[C@H]2[C@@H](COC[C@@H](O)CN2Cc2cc(F)ccc2F)O1)NCc1ccccc1	n	x	x	x	x
CO[C@@H]1CN(C)C(=O)c2ccc(NC(=O)C3CC3)cc2OC[C@H](C)N(C(=O)NC(C)C)C[C@@H]1C	n	x	x	x	x
O=C(NCC(F)(F)F)[C@@H]1[C@@H](CO)[C@@H]2Cn3c(cccc3=O)[C@@H]2N1C(=O)C1CCC1	n	x	x	x	x
Cc1cccn2c(=O)c3cc(C#N)c(=NC(=O)c4ccncc4)n(CCCOC(C)C)c3nc12	x	n	75.2	n	+
COCCCn1c(=NC(=O)c2ccncc2)c(C#N)cc2c(=O)n3cccc(C)c3nc21	n	n	u	x	u
Cc1ccccc1C(=O)N=c1c(C#N)cc2c(=O)n3cccc(C)c3nc2n1Cc1ccco1	x	x	n	x	n
N#Cc1cc2c(=O)n3ccccc3nc2n(Cc2ccco2)c1=NC(=O)c1ccco1	x	41.1	u	n	n
CC(=O)N=c1c(C#N)cc2c(=O)n3cccc(C)c3nc2n1Cc1ccco1	n	n	71.5	n	+
COc1cc([N+](=O)[O-])ccc1-c1ccc(/C=N/NC(N)=O)o1	n	n	n	n	+
COc1cc([N+](=O)[O-])ccc1-c1ccc(/C=N/NC(=O)OC(C)(C)C)o1	n	n	n	n	n
C/C=C/c1cnc2c(c1)C(=O)N([C@@H](C)CO)C[C@H](C)[C@@H](CN(C)C(=O)c1ccc3c(c1)OCO3)O2	n	x	x	x	x
CCCNC(=O)Nc1ccc2c(c1)OC[C@@H](C)N(C(=O)C1CCCCC1)C[C@@H](C)[C@H](OC)CN(C)C2=O	n	x	x	x	x
Cc1ccc(NC2=C(Cl)C(=O)c3ccccc3C2=O)cc1	n	n	n	n	n
CCCC(=O)NC1=C(Cl)C(=O)c2ccccc2C1=O	x	41.5	x	n	x
CCNC1=C(Cl)C(=O)c2ccccc2C1=O	n	n	n	n	n
CCN(CC)c1ccc(NC2=C(Cl)C(=O)c3ccccc3C2=O)cc1	n	44.8	n	n	n
CCNC(=O)C[C@@H]1CC[C@H]2[C@@H](COc3ccc(NC(=O)Cc4ccccc4)cc3C(=O)N2C)O1	n	x	x	x	x
CCC(=O)N(C)C[C@H]1Oc2ncc(-c3ccccc3OC)cc2C(=O)N([C@@H](C)CO)C[C@@H]1C	n	x	x	x	x
Cc1ccc(S(=O)(=O)/N=C2/C=C(C3C(=O)CC(C)(C)CC3=O)C(=O)c3ccccc32)cc1	n	44.3	n	n	n
Cc1ccc(S(=O)(=O)/N=C2\C=C(NS(=O)(=O)c3ccccc3)C(=O)c3ccccc32)cc1	n	n	x	n	x
CC(=O)c1ccc(NC(=S)N2CCN(c3cccc(Cl)c3)CC2)cc1	n	n	n	n	n
CC(=O)c1ccc(N2CCN(C(=S)Nc3cccc(Cl)c3)CC2)cc1	n	n	n	59.8	n
Nc1ccc(N2CCCCCC2)cc1	x	x	82.7	x	+
C[C@@H]1CN([C@@H](C)CO)C(=O)c2cc(NC(=O)Cc3cn(C)c4ccccc34)ccc2O[C@@H]1CN(C)C(=O)Nc1ccc(F)cc1	n	x	x	x	x
CO[C@@H]1CN(C)C(=O)c2ccc(NC(=O)Nc3cccc(F)c3)cc2OC[C@@H](C)N(C(=O)Nc2c(C)noc2C)C[C@H]1C	n	x	x	x	x
SMILES	Yeast UUG start	MLLE-PAM2 inh	eIF4H inh	DSG3 Ab inh	PABP FP inh
CCCC(=O)Nc1ccc2c(c1)C(=O)N(C)[C@@H]1CC[C@H](CC(=O)NCCCN(C)C)O[C@@H]1CO2	n	x	x	x	x
Oc1cccc(/C=N/Nc2cc(N3CCCC3)nc(N3CCCC3)n2)c1	x	n	29.1	n	n
COc1ccc(/C=N/Nc2cc(N3CCCC3)nc(N3CCCC3)n2)cc1	n	54.1	n	n	n
Oc1ccc(/C=N/Nc2cc(N3CCCC3)nc(N3CCCC3)n2)cc1	n	70.4	n	n	u
CNC(=O)/C(C#N)=C\c1ccc(CNS(=O)(=O)c2ccc(Cl)cc2)o1	x	n	n	n	+
CNC(=O)/C(C#N)=C\c1ccc(CNS(=O)(=O)c2ccccc2)o1	n	n	n	n	n
O=CNn1cnc2c(oc3nc(-c4ccccc4)cc(-c4ccco4)c32)c1=O	x	n	51.1	77.6	n
C[C@@H]1CN([C@H](C)CO)C(=O)c2cccc(NS(=O)(=O)c3cccs3)c2O[C@@H]1CN(C)S(=O)(=O)c1ccc(Cl)cc1	n	x	x	x	x
CNC[C@@H]1OCCCC[C@H](C)Oc2ccc(NS(=O)(=O)c3c(C)noc3C)cc2C(=O)N([C@@H](C)CO)C[C@H]1C	n	x	x	x	x
C/C(=N\Nc1ccc(S(=O)(=O)Nc2ccccc2)cc1[N+](=O)[O-])c1ccc(N2CCOCC2)cc1	x	n	n	76.5	n
COc1cc(C(=O)Nc2cccc(-c3nc4cc(C)ccc4o3)c2C)cc(OC)c1OC	n	n	n	79.9	n
COc1cc(C(=O)Nc2cccc(-c3nc4ncccc4o3)c2C)cc(OC)c1OC	n	n	n	n	n
COc1ccc(S(=O)(=O)N(C)C[C@H]2Oc3ccc(NS(=O)(=O)c4cccs4)cc3C(=O)N([C@@H](C)CO)C[C@@H]2C)cc1	n	x	x	x	x
CS(=O)(=O)Nc1ccc2c(c1)[C@@H]1C[C@H](CC(=O)NCc3cccc(F)c3)O[C@@H](CO)[C@@H]1O2	n	x	x	x	x
CC1CCCCN1C(=O)Cn1nnc(-c2cccnc2)n1 (configuration not stated)	n	49.1	u	n	n
C[C@@H]1CN([C@@H](C)CO)C(=O)c2cc(C3=CCCC3)cnc2O[C@@H]1CN(C)S(=O)(=O)c1cn(C)cn1	n	x	x	x	x
O=c1cc(O)n(-c2ccc(Cl)cc2)c(=S)[nH]1	n	n	n	n	n
Cc1ccccc1-n1c(O)cc(=O)[nH]c1=S	x	n	52.9	n	n
O=c1cc(O)n(-c2ccccc2F)c(=S)[nH]1	n	n	45.8	n	+
COc1ccc(-c2cnc3c(c2)C(=O)N([C@@H](C)CO)C[C@@H](C)[C@H](CN(C)C(=O)C2CCC2)O3)cc1	n	x	x	x	x
C[C@@H]1CN([C@H](C)CO)C(=O)c2cccc(NC(=O)C3CC3)c2O[C@H]1CN(C)C	n	x	x	x	x
O=S1(=O)CC(O)C(Nc2ccccc2)C1 (configuration not stated)	n	n	active	x	n
O=C1C2=C(SCCS2)C(=O)N1CCCO	n	57.7	101.3	n	+
O=C1c2ccc(-c3ccc4c(c3)C(=O)N(CCCO)C4=O)cc2C(=O)N1CCCO	n	n	n	n	n
C[C@@H]1CN([C@@H](C)CO)C(=O)c2cc(NC(=O)CCC(F)(F)F)ccc2O[C@@H](C)CCCCO[C@H]1CN(C)S(=O)(=O)c1cn(C)cn1	n	x	x	x	x
COC(=O)[C@@]1(C)[C@H]2C(=O)N(Cc3ccccc3)C(=O)[C@H]2[C@H]2CN=C(SCC(=O)c3ccccc3)N21	n	43.4	x	n	x
CCC(CC)C(=O)Nc1cccc(S(=O)(=O)c2cccc(NC(=O)C(CC)CC)c2)c1	n	n	n	-13.1	n
